{
  "source": "patent US7259166B2",
  "about": "“Substituted-cycloalkyl and oxygenated-cycloalkyl glucokinase activators” (Hoffmann-La Roche Inc., priority 2002, dated 2007)",
  "test_system": "C57BL/6J mice",
  "test": "Glucokinase activator in vivo screen (blood glucose after oral dosing)",
  "settings": "oral gavage 50 mg/kg, two hour fast, blood glucose at 1, 2, 4 and 6 hours post dose",
  "description": "Glucokinase Activator In Vivo Screen Protocol\nC57BL/6J mice are orally dosed via gavage with Glucokinase (GK) activator at 50 mg/kg body weight following a two hour fasting period. Blood glucose determinations are made five times during the six hour post-dose study period.\nMice (n=6) are weighed and fasted for a two hour period prior to oral treatment.",
  "data": [
    {"smiles": "CS(=O)(=O)c1ccc([C@@H](C[C@H]2CCC(=O)C2)C(=O)Nc2cnccn2)cc1Cl", "note": "[Example 48, 2(R)-(3-Chloro-4-methanesulfonyl-phenyl)-3-((R)-3-oxo-cyclopentyl)-N-pyrazin-2-yl-propionamide]", "values": [
      {"measurement": "glucokinase activator in vivo activity when administered orally (decrease in blood glucose compared to vehicle)", "value": "excellent glucokinase activator in vivo activity"}
    ]},
    {"smiles": "CS(=O)(=O)c1ccc([C@@H](CC2CCC(=O)C2)C(=O)Nc2cnccn2)cc1Cl", "note": "(stereo partly drawn) [Example 46, 2(R)-(3-Chloro-4-methanesulfonyl-phenyl)-3-(3-oxo-cyclopentyl)-N-pyrazin-2-yl-propionamide]", "values": [
      {"measurement": "glucokinase activator in vivo activity when administered orally (decrease in blood glucose compared to vehicle)", "value": "excellent glucokinase activator in vivo activity"}
    ]}
  ]
}
